For this test, the system named is reactive oxygen species in BJ-TERT/LT/ST/RAS^V12 cells. Briefly: ROS levels by DCF fluorescence. Conditions: erastin 6 hrs, RSL3 6 hrs, compound 27 18 hrs.
With `COC(=O)c1ccc(C2c3[nH]c4ccccc4c3CC(C(=O)OC)N2C(=O)CCl)cc1` (stereo not drawn) [RSL3], the “ROS levels (DCF fluorescence)” value is “induced increases in DCF fluorescence”.
The value for `CCOc1ccccc1-n1c(C(C)N2CCN(C(=O)COc3ccc(Cl)cc3)CC2)nc2ccccc2c1=O` (stereo not drawn) [erastin] was “induced increases in DCF fluorescence”; that for `CCOC(=O)C1c2c(c3ccccc3n2C)CCN1C(=O)OC` (stereo not drawn) [Compound 27] was “induced increases in DCF fluorescence”.

The values are drawn from publication PMC3423582 (Bioorganic & medicinal chemistry letters, 2012).
